The text below walks through data of patent US20240018189A1 (Protagonist Therapeutics, Inc., priority 2020, published 2024).

Like-named read-outs stand apart in the source and are kept apart here.

The target in this test is T1, human ferroportin (Homo sapiens, UniProt Q9NP59).
T1 sequence (Q9NP59 1-571): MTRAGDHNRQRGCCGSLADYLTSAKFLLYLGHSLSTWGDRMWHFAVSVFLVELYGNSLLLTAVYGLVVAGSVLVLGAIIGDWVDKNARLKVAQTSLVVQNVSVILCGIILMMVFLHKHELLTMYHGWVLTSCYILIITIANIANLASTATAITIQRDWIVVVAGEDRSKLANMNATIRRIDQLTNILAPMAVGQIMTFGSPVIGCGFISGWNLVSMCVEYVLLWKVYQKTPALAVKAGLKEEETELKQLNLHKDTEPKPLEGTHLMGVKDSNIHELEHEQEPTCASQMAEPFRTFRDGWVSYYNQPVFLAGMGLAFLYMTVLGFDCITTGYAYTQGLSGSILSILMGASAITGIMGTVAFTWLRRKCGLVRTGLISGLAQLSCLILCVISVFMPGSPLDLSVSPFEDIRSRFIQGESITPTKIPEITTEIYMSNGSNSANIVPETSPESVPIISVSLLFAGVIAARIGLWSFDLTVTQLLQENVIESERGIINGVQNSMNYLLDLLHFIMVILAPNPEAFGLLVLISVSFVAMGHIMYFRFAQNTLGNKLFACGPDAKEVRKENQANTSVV
In words: FPN activity assay: internalization/degradation of ferroportin-GFP in stably transfected HEK293 cells. Conditions: read-out: FPN EC50, HEK293 ferroportin-GFP cells, at least 18 hours incubation.

With “Isovaleric Acid-D-T-H-F-P-[Cys]-I-K-F-[Lys(1PEG2_1PEG2_Ahx_C18_Diacid)]-P-R-S-K-[Sarc]-[Cys]-K-NH2 [Compound 210]”, the DC50 (Table 3B) came out at 0.0278 µM.

For the substance “Isovaleric Acid-D-T-H-F-P-[Cys]-I-K-F-[Lys(PEG12_Sarc_Palm)]-P-R-S-K-[Sarc]-[Cys]-K-NH2 [Compound 211]”, the DC50 (Table 3B) turned out to be 0.00921 µM.

Consider “Isovaleric Acid-D-T-H-F-P-[Cys]-I-[(D)Lys]-[bhPhe]-[Lys(Palm)]-K-[Cys]-NH2 [Compound 205]”, for which, under “Table 3B”, the DC50 stood at 0.00423 µM.

On to “Isovaleric Acid-D-T-H-F-P-[Cys]-I-[Lys(Ac)]-F-[Lys(PEG12_Palm)]-P-[Lys(Ac)]-S-[Lys(Ac)]-[Sarc]-[Cys]-K-NH2 [Compound 214]”, for which the DC50 (Table 3B) stood at 0.00719 µM.

For the substance “Isovaleric Acid-D-T-H-F-P-[Cys]-I-[Lys(IsoGlu_Palm)]-F-E-P-R-S-K-G-[Cys]-[MeLys]-NH2 [Compound 235]”, the DC50 (Table 3B) is 0.0103 µM.

Consider “Isovaleric Acid-D-T-H-F-P-[Cys]-I-[Lys(IsoGlu_Palm)]-F-E-P-R-S-K-[Sarc]-[Cys]-K-NH2 [Compound 237]”, for which the DC50 (Table 3B) stood at 0.0114 µM.

Take “Isovaleric Acid-D-T-H-F-P-[Cys]-I-[Lys(IsoGlu_Palm)]-F-E-P-R-S-[MeLys]-G-[Cys]-K-NH2 [Compound 238]”: under “Table 3B”, the DC50 was 0.0106 µM.

“Isovaleric Acid-D-T-H-F-P-[Cys]-I-[Lys(IsoGlu_Palm)]-F-E-P-R-[MeSer]-K-G-[Cys]-K-NH2 [Compound 239]”: the DC50 (Table 3B) was 0.00634 µM.

As for “Isovaleric Acid-D-T-H-F-P-[Cys]-I-[Lys(IsoGlu_Palm)]-F-E-P-[MeArg]-S-K-G-[Cys]-K-NH2 [Compound 240]”, the DC50 (Table 3B) turned out to be 0.0111 µM.

Take “Isovaleric Acid-D-T-H-F-P-[Cys]-I-[Lys(IsoGlu_Palm)]-F-[MeGlu]-P-R-S-K-G-[Cys]-K-NH2 [Compound 241]”: the DC50 (Table 3B) worked out at 0.0208 µM.

As to “Isovaleric Acid-D-T-H-F-P-[Cys]-I-[Lys(IsoGlu_Palm)]-[MePhe]-E-P-R-S-K-G-[Cys]-K-NH2 [Compound 242]”, the DC50 (Table 3B) turned out to be 0.0333 µM.

“Isovaleric Acid-D-T-H-F-P-[Cys]-L-[Lys(IsoGlu_Palm)]-F-E-P-R-S-K-G-[Cys]-K-NH2 [Compound 216]”: the DC50 (Table 3B) amounted to 0.0166 µM.

Regarding “Isovaleric Acid-D-T-H-F-P-[Cys]-[MeLeu]-[Lys(IsoGlu_Palm)]-F-E-P-R-S-K-G-[Cys]-K-NH2 [Compound 244]”, where the note is “Table 3B”, the DC50 is 0.00959 µM.

For “Isovaleric Acid-D-T-H-[Dpa]-P-C-I-[(D)Lys]-[bhPhe]-[Lys(1Peg2_1Peg2_Ahx_C18_Diacid)]-[(D)Lys]-C-NH2 [Compound 43]”, the DC50 (Table 3A) worked out at 0.283 µM.

Turning to “Isovaleric Acid-D-T-H-[Dpa]-P-C-I-[(D)Lys]-[bhPhe]-[Lys(2Peg11′_Ahx_Palm)]-[(D)Lys]-C-NH2 [Compound 37]”, the DC50 (Table 3A) was found to be 0.0196 µM.

With “Isovaleric Acid-D-T-H-[Dpa]-P-C-I-[(D)Lys]-[bhPhe]-[Lys(2Peg11′_Palm)]-P-R-S-K-C-NH2 [Compound 33]”, the DC50 (Table 3A) came out at 0.0254 µM.

For “Isovaleric Acid-D-T-H-[Dpa]-P-C-I-[(D)Lys]-[bhPhe]-[Lys(2Peg11′_Palm)]-P-R-S-K-[Sarc]-C-NH2 [Compound 34]”, the DC50 (Table 3A) turned out to be 0.0236 µM.

On to “Isovaleric Acid-D-T-H-[Dpa]-P-C-I-[(D)Lys]-[bhPhe]-[Lys(2Peg11′_Peg11_Palm)]-[(D)Lys]-C-NH2 [Compound 41]”, for which the DC50 (Table 3A) turned out to be 0.0185 µM.

Consider “Isovaleric Acid-D-T-H-[Dpa]-P-C-I-[(D)Lys]-[bhPhe]-[Lys(2Peg11′_Sarc_Palm)]-[(D)Lys]-C-NH2 [Compound 36]”, for which the DC50 (Table 3A) is 0.0109 µM.

As to “Isovaleric Acid-D-T-H-[Dpa]-P-C-I-[(D)Lys]-[bhPhe]-[Lys(Ahx_Ahx_Ahx_Palm)]-[(D)Lys]-C-NH2 [Compound 40]”, where the note is “Table 3A”, the DC50 was 0.0185 µM.

On to “Isovaleric Acid-D-T-H-[Dpa]-P-C-I-[(D)Lys]-[bhPhe]-[Lys(Ahx_Ahx_Palm)]-[(D)Lys]-C-NH2 [Compound 39]”, for which the DC50 (Table 3A) was 0.0193 µM.

For “Isovaleric Acid-D-T-H-[Dpa]-P-C-I-[(D)Lys]-[bhPhe]-[Lys(Lys[Peg11_Palm]2)]-[(D)Lys]-C-NH2 [Compound 38]”, the DC50 (Table 3A) was found to be 0.033 µM.

With “Isovaleric Acid-D-T-H-[Dpa]-P-[Cys]-I-K-F-[Lys(PEG12_Palm)]-P-R-S-K-[Sarc]-[Cys]-K-NH2 [Compound 212]”, the DC50 (Table 3B) came out at 0.0207 µM.

In the case of “Isovaleric Acid-D-T-H-[Dpa]-P-[Cys]-I-[(D)Lys(PEG12_OMe)]-[bhPhe]-[Lys(1PEG2_1PEG2_IsoGlu_C18_Diacid)]-[(D)Lys(PEG12_OMe)]-[Cys]-NH2 [Compound 253]”, the DC50 (Table 3B) is over 3 µM.

“Isovaleric Acid-D-T-H-[Dpa]-P-[Cys]-I-[(D)Lys]-[MePhe]-[Lys(Ahx_Palm)]-[(D)Lys]-[Cys]-NH2 [Compound 202]”: for the setting “Table 3B”, the DC50 is 0.0162 µM.

Turning to “Isovaleric Acid-D-T-H-[Dpa]-P-[Cys]-I-[bhPhe]-[Lys(Ahx_Palm)]-[(D)Lys]-[Cys]-NH2 [Compound 206]”, under “Table 3B”, the DC50 was 0.0108 µM.

Turning to “Isovaleric Acid-D-T-H-[Dpa]-P-[Cys]-[MeLeu]-[(D)Lys]-[bhPhe]-[Lys(Ahx_Palm)]-[(D)Lys]-[Cys]-NH2 [Compound 201]”, the DC50 (Table 3B) amounted to 0.0125 µM.

In the case of “Isovaleric Acid-D-T-H-[MePhe]-P-[Cys]-I-[(D)Lys]-[bhPhe]-[Lys(Ahx_Palm)]-[(D)Lys]-[Cys]-NH2 [Compound 203]”, for the setting “Table 3B”, the DC50 turned out to be 0.028 µM.

On to “Isovaleric Acid-[(D)Asp]-T-H-F-P-[Cys]-I-[Lys(IsoGlu_Palm)]-F-E-P-R-S-K-G-[Cys]-K-NH2 [Compound 204]”, for which, where the note is “Table 3B”, the DC50 was found to be 0.00552 µM.

With “Isovaleric acid-D-T-H-[Dpa]-P-C-I- Lys[Ahx-Behenic_Acid]-bhPhe-(D)Lys-C-NH2 [Compound 8]”, for the setting “Table 3A”, the DC50 worked out at 0.55 µM.

For “Isovaleric acid-D-T-H-[Dpa]-P-C-I-(D)Lys-bhPhe-Lys[Palm]-K-C-NH2 [Compound 16]”, the DC50 (Table 3A) is 0.00585 µM.

As to “Isovaleric acid-D-T-H-[Dpa]-P-C-I-(D)Lys-bhPhe-[Lys(Ahx-Palm)]-(D)Lys-C-NH2 [Compound 20]”, for the setting “Table 3A”, the DC50 is 0.00666 µM.

Turning to “Isovaleric acid-D-T-H-[Dpa]-P-C-I-(D)Lys-bhPhe-[Lys(Ahx-Palm)]-Arg(Nitro)-C-NH2 [Compound 22]”, the DC50 (Table 3A) was 0.0301 µM.

Turning to “Isovaleric acid-D-T-H-[Dpa]-P-C-I-(D)Lys-bhPhe-[Lys(Ahx-Palm)]-Cit-C-NH2 [Compound 24]”, the DC50 (Table 3A) came to 0.0458 µM.

In the case of “Isovaleric acid-D-T-H-[Dpa]-P-C-I-(D)Lys-bhPhe-[Lys(Ahx-Palm)]-K-C-NH2 [Compound 17]”, the DC50 (Table 3A) turned out to be 0.00829 µM.

With “Isovaleric acid-D-T-H-[Dpa]-P-C-I-(D)Lys-bhPhe-[Lys(Ahx-Palm)]-[Spiral_Pip]-C-NH2 [Compound 21]”, the DC50 (Table 3A) is 0.0375 µM.

In the case of “Isovaleric acid-D-T-H-[Dpa]-P-C-I-Arg(Nitro)-bhPhe-[Lys(Ahx-Palm)]-(D)Lys-C-NH2 [Compound 28]”, the DC50 (Table 3A) is 0.0271 µM.

Regarding “Isovaleric acid-D-T-H-[Dpa]-P-C-I-Cit-bhPhe-[Lys(Ahx-Palm)]-(D)Lys-C-NH2 [Compound 30]”, where the note is “Table 3A”, the DC50 was found to be 0.0266 µM.

On to “Isovaleric acid-D-T-H-[Dpa]-P-C-I-Lys[1Peg2-1Peg2-Ahx-C18_Diacid]-bhPhe-(D)Lys-C-NH2 [Compound 11]”, for which the DC50 (Table 3A) turned out to be 0.0127 µM.

On to “Isovaleric acid-D-T-H-[Dpa]-P-C-I-Lys[1Peg2-1Peg2-isoGlu-Behenic_Acid]-bhPhe-(D)Lys-C-NH2 [Compound 9]”, for which, where the note is “Table 3A”, the DC50 was determined as 0.0184 µM.

For “Isovaleric acid-D-T-H-[Dpa]-P-C-I-Lys[Ahx-isoGlu-Palm]-bhPhe--(D)Lys-C-NH2 [Compound 5]”, the DC50 (Table 3A) came out at 0.00075 µM.

For “Isovaleric acid-D-T-H-[Dpa]-P-C-I-Lys[isoGlu-Palm]-bhPhe-(D)Lys-C-NH2 [Compound 6]”, the DC50 (Table 3A) amounted to 0.00616 µM.

With “Isovaleric acid-D-T-H-[Dpa]-P-C-I-[Spiral_Pip]-bhPhe-[Lys(Ahx-Palm)]-(D)Lys-C-NH2 [Compound 27]”, for the setting “Table 3A”, the DC50 amounted to 0.0263 µM.

Take “Isovaleric acid-D-T-H-[Dpa]-P-C-I-bhPhe-[Lys(Ahx-Palm)]-(D)Lys-C-NH2 [Compound 18]”: the DC50 (Table 3A) is 0.0108 µM.

Regarding “Isovaleric acid-D-T-H-[Dpa]-[Npc]-C-I-(D)Lys-bhPhe-Lys[1Peg2-1Peg2-Ahx-C18_Diacid]-C-(D)Lys-NH2 [Compound 15]”, the DC50 (Table 3A) was over 3 µM.

With “Isovaleric acid-D-T-H-[Dpa]-[Npc]-C-I-(D)Lys-bhPhe-Lys[isoGlu-Palm]-C-(D)Lys-NH2 [Compound 13]”, where the note is “Table 3A”, the DC50 was 0.0161 µM.

Turning to “Isovaleric acid-D-T-H-[Dpa]-[Npc]-C-I-(D)Lys-bhPhe-[Lys(Ahx-Palm)]-(D)Lys-C-NH2 [Compound 4]”, the DC50 (Table 3A) was determined as 0.00635 µM.

As to “Isovaleric acid-D-T-H-[Dpa]-[Npc]-C-I-(D)Lys-bhPhe-[Lys(Ahx-Palm)]-C-(D)Lys-NH2 [Compound 12]”, under “Table 3A”, the DC50 is 0.0115 µM.

“Isovaleric acid-D-T-H-[Dpa]-[Npc]-C-I-Lys[isoGlu-Palm]-bhPhe-C-(D)Lys-NH2 [Compound 19]”: the DC50 (Table 3A) was 0.00456 µM.
